## Apparent affinities of Ab-91 variants for a coronavirus HR2 peptide

Binding partner: SARS-CoV-2 spike HR2 peptide, sequence PDVDLGDISGINAS.

Each scFv is VL, a (GGGGS)3 linker, VH, as in the parent Ab-91, and differs from it in the CDRs of the heavy chain only.
VL: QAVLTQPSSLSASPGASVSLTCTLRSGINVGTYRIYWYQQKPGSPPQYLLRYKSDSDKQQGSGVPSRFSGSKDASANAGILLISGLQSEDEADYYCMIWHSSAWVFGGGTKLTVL
VH: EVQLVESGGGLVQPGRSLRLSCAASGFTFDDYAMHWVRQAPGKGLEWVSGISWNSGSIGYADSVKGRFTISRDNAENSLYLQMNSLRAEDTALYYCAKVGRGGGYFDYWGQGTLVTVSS

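Phage display of a naive human antibody library on the peptide gave the parent. Variants in AAYL51 differ from the parent at up to three CDR positions; double and triple changes were sampled at random. The assay is AlphaSeq: two haploid yeast populations carry antibody and antigen on their surface. Binding brings cells together so that they mate, and sequencing counts the barcode pairs among the diploids. Each replicate has its own calibration line, from reference interactions of the BCL2 family. Mating was done three times.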

The parent's heavy chain CDRs are GFTFDDYAMH, GISWNSGSIGYADSVK, VGRGGGYFDY; each variant's own CDRs replace them letter for letter.
Values are log10 of the apparent Kd in nM; lower means stronger binding.
"ND" marks a missing value. The strain was present, yet no cells mated with the target were sequenced in that replicate, which points to weak or no binding.
For reference, the parent read 1.86 as the reference entry and 0.88 as a member of this library.
Empty control strains, which show no peptide, gave a signal in 21% of pairings with library AAYL51; the median was 4.54 and 95% of these signals were weaker than 3.26. No background was subtracted. For each scFv, signals with the empty controls are counted beside the result, with their mean in brackets.

| CDR-H1 | CDR-H2 | CDR-H3 | log10 Kd (nM) by replicate | signal with controls |
|---|---|---|---|---|
| MFTADDYAMT | GISWNSGSIGYADSVK | VGRGGGYFDY | ND / 3.88 / ND | 0 of 9 |
| AFTFDIYAMH | GISWNSGSIGYADSVK | VGRGGGYFDC | ND / ND / 4.06 | 5 of 9 (4.63) |
| GFTFDDYAMH | GISWNDISIGYADSVK | VGRGGLYFDY | ND / ND / ND | 1 of 9 (4.09) |
| GFTFDDYAMH | GTSWNSGSIGVADSVK | VVRGGGYFDY | 6.62 / 5.65 / ND | 5 of 9 (4.90) |
| GFTFDDYAMH | GISWNSGSIPYADVVK | VGRGGGYFPY | ND / ND / 4.33 | 3 of 9 (4.07) |
| GFTFDDYALH | GISWNSGSIGYADSVK | VGRGGGYFDY | 3.78 / 3.83 / 3.72 | 6 of 9 (4.86) |
| GFTFDDYAMH | GISWLSGSIGYADSVK | VGRGVGYFDY | ND / ND / ND | 0 of 9 |
| GFTFDDSAMH | GILWNSGSIGYVDSVK | VGRGGGYFDY | 4.65 / 4.17 / 5.07 | 6 of 9 (5.18) |
| GFTFDDYAMT | GIKWNSGSIGYADSVK | VGRHGGYFDY | 5.73 / 5.36 / ND | 3 of 9 (4.84) |
| GFTFDDYNMH | GISFNSGSIGYADSVK | HGRGGGYFDY | 5.79 / ND / ND | 7 of 9 (5.18) |
| GGTFDDYAMH | GISWNSGSIGYADSVK | VGRNGGYFDG | ND / 3.50 / 3.86 | 4 of 9 (3.59) |
| EFTFDDYAYY | GISWNSGSIGYADSVK | VGRGGGYFDY | ND / ND / 4.48 | 1 of 9 (3.63) |
| KFTFDDYAME | GISWNSGSIGYADSVK | VGRGGGYFDY | 5.17 / 4.28 / ND | 5 of 9 (5.23) |
| GFTFDGWDMH | GISWNSGSIGYADSVK | VGRGGGYFDY | ND / ND / ND | 0 of 9 |
| GPTFDDYAMH | GISWNSGSIGVADSVK | VGRGGWYFDY | ND / ND / ND | 3 of 9 (4.43) |
| GFTFDDYAMH | GISANSGSIGYADSVK | VGRGGGYFRN | ND / 5.09 / 4.31 | 5 of 9 (4.56) |
| VFTFDDYAMH | KISWNSGHIGYADSVK | VGRGGGYFDY | ND / ND / ND | 0 of 9 |
| GFTFDDYAMH | GISWNSGSIGYAWSQK | VGRGGGYFDY | ND / ND / ND | 0 of 9 |
| HFTFDDYAMH | GIPWNSGSIGYADSVK | VGKGGGYFDY | ND / ND / ND | 1 of 9 (5.27) |
| GFTFDDYAMH | GISWNSGSIGYADSVK | VKTGGGYFMY | ND / ND / 5.10 | 3 of 9 (4.59) |
| GFTFDDYACH | GISWNSGSIGYADSAK | VGRGGGYFLY | ND / ND / ND | 0 of 9 |
| GFTFDDYAEH | GISWNSGSIGYAGSVK | VYRGGGYFDY | 4.26 / ND / ND | 3 of 9 (5.23) |
| GFTFDDQAMH | GISWNSGSIGYADSVK | VGRSGPYFDY | ND / ND / ND | 1 of 9 (3.73) |
| GFTFDDYAMH | GFSWNSGSIGYADRAK | VGRGGGYFDY | 5.26 / ND / ND | 1 of 9 (4.09) |
| GVTFDDYIMH | GISWNSGSIGYADSVK | VGRGGGYFDS | 5.24 / 6.72 / ND | 8 of 9 (5.08) |
| GFTFDDHAMH | GISWNSDKIGYADSVK | VGRGGGYFDY | 3.10 / 3.28 / 3.03 | 1 of 9 (3.82) |
| GFTFDDYAMH | GISWNSGSIGYADSVG | VGYGGGYFDY | 3.42 / ND / ND | 1 of 9 (3.55) |
| GFTFDDYAMG | GISWNSGSILYADSVK | VGRGGGWFDY | ND / ND / 5.03 | 3 of 9 (4.61) |
| GFHFDDYAMH | GDSWNSGSIGYADSVK | VGCGGGYFDY | ND / ND / ND | 2 of 9 (3.07) |
| GFTFDDKALH | GISWNSGSIGPADSVK | VGRGGGYFDY | 3.56 / ND / ND | 0 of 9 |
| GFTFDMYAMH | GISWNSGSIGYANSVK | VGRSGGYFDY | 2.17 / 2.01 / 2.05 | 5 of 9 (4.84) |
| GFTFDDEAMH | GISWNSGSIGYADEVK | VGRDGGYFDY | 4.40 / 5.64 / ND | 4 of 9 (4.50) |
| GFTHDDYAMH | GISWNSGSIGYADSVK | KGNGGGYFDY | ND / 4.08 / ND | 1 of 9 (4.83) |
| GFTVDDYAMA | GISWNSGSIGYADSVK | VGRGGGYFPY | 6.17 / ND / ND | 4 of 9 (4.55) |
| GFTFDDYAMH | GIDWNSGSIGYHDSVK | VGRGGGYFVY | 5.42 / 5.55 / ND | 3 of 9 (4.50) |
| MFTFDIYAMH | GISWNSGSIGYADSVK | VGYGGGYFDY | ND / ND / ND | 2 of 9 (3.96) |
| GFTFDDYAAH | GISWNSGSIGYADSVK | VGRGGGYLDY | ND / ND / ND | 1 of 9 (3.47) |
| GFTFDDYAMH | DISWNSGSIGYADSVK | FKRGGGYFDY | 5.75 / ND / 4.99 | 5 of 9 (4.80) |
| GFTFDDYAMH | GISWNRGSIGNADSVK | VGRGNGYFDY | 5.39 / ND / ND | 1 of 9 (3.77) |
| GTTHDVYAMH | GISWNSGSIGYADSVK | VGRGGGYFDY | ND / ND / ND | 0 of 9 |
| GFTFDDYAPH | GISWNSGSIEYADSVK | VGRGGGYFEY | 4.34 / ND / ND | 3 of 9 (3.91) |
| GFTFDDYAMH | GISWYSGSIGYADSDK | VGRGGGYFDY | ND / ND / ND | 1 of 9 (4.57) |
| GCTFDDCAMH | GDSWNSGSIGYADSVK | VGRGGGYFDY | ND / ND / ND | 4 of 9 (4.99) |
| GFTFDDYAMH | GISWNSGSIGSADSVK | VGRGGGSDDY | ND / ND / ND | 0 of 9 |
| TFTFDDYAMH | GISWNSFSIGYADSVK | VGRGGGYFDY | 4.23 / 6.31 / ND | 1 of 9 (4.69) |
| GVTFDYYAMH | GISWNSGSMGYADSVK | VGRGGGYFDY | 1.34 / 1.35 / 0.56 | 5 of 9 (4.73) |
| GFTFDDYAMH | FISWNSGSEGYADSVK | VGRGGGYFGY | 5.15 / ND / ND | 3 of 9 (3.89) |
| GFTFDDYAMH | GISWNSGSIGYADQVK | VGRGGGYFDP | 0.91 / 0.96 / 0.56 | 1 of 9 (4.23) |

Data: MIT Lincoln Laboratory AlphaSeq set, Engelhart et al. 2022, doi:10.1038/s41597-022-01779-4, as distributed in FLAb.